Most compounds without a hit are left out; they make up all but 2.8% or so of the library.
esBAF inh – inhibitors of esBAF chromatin remodeling in mouse ES cells; Bmi1-luciferase knock-in reporter, 24 h; 100% = twice the neutral-well signal; reporter increase, % at 12.5 µM; 350,000 tested, 2% active; AID 602393; in the data active = activation above about 40%; inconclusive = no clear call, values can overlap the other calls;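 note: 0% = median of the plate's neutral control wells and 100% = double that signal; a rise in the Bmi1 reporter signal indicates esBAF inhibition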
UUG fidelity – yeast start codon fidelity modulation; activity score, % at 18.7 µM; actives 0.13% (n = 350,000); S. cerevisiae UUG-firefly luciferase reporter, luminescence/redox ratio; AID 602363;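 active means replicate mean at a twofold rise or more, about +100% in these data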;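 further: firefly luciferase made from a UUG start codon reports start codon fidelity; reporter light over untreated wells divided by growth signal over untreated wells; some hits fall short of that in this replicate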
MITF TRPM1 HTS – increases MITF-driven TRPM1 promoter luciferase signal. SK-MEL-5 TRPM1-promoter luciferase, 24 h; % of positive control, neutral wells = 0. activation, % at 12.5 µM. 300,000 tested, 0.75% active;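 active = mean activation of at least 80% with every replicate also reaching 80%; inconclusive = mean reaches 80% but some replicate falls short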;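 note: 0% = neutral control wells and 100% = parthenolide positive control wells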
PglD inh – blocks C. jejuni PglD acetyltransferase activity; 360,000 tested, 0.098% active; AID 602405; purified PglD enzyme, DTNB colorimetric CoA detection; inhibition, % at 12.5 µM; in the data active = inhibition above about 16%, passing the limit was not always enough; inconclusive = no clear call, values can overlap the other calls
Wnt act – Wnt/beta-catenin pathway activation; Wnt/beta-catenin reporter cell assay, activator, plate reader; activation, % at 9.35 µM; 300,000 tested, 1.2% active; in the data active = activation above about 30%, passing the limit was not always enough; inconclusive = no clear call, values can overlap the other calls;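 note: 0% = neutral control wells and 100% = positive control wells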
miR122 inh – miR-122 inhibition in Huh7 cells; Huh7 miR-122 Renilla luciferase sensor, 48 h; neutral wells = 0, positive control = 100; activation (reporter increase), % at 12.5 µM; 340,000 tested, 0.3% active; AID 602342;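 active = mean replicate activation score at least 90 and every replicate individually at or above 90; inconclusive = only one of the two criteria met; inactive = neither criterion met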;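 note: higher luciferase means less miR-122 activity so hits act as miR-122 inhibitors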
* marks the source's active call; other numbers are inactive results; u = inconclusive; x = not tested or not shown; [ ] = remark or other dose.

SMILES	esBAF inh	UUG fidelity	MITF TRPM1 HTS	PglD inh	Wnt act	miR122 inh
CN(C)C(=O)C[C@H]1C[C@H]2c3cc(NS(=O)(=O)c4ccc(F)cc4)ccc3O[C@H]2[C@@H](CO)O1	-2	23	x	-4	x	13[16.7 µM]
C[C@@H]1CN([C@H](C)CO)C(=O)CCCn2cc(nn2)CO[C@H]1CN(C)Cc1ccc(C(F)(F)F)cc1	-1	7	x	-1	x	2[16.7 µM]
c1ccc(-c2nnc(-c3ccccn3)nn2)nc1	x	-42	36	3	36*	8
Cc1cnc(NC(=O)c2sc(Nc3ccccc3)nc2N)o1	x	-6	x	-10	38*	-4
Nc1nc(Nc2ccccc2)sc1C(=O)c1ccccc1	x	-8	x	4	51*	10
COc1ccc(C(=O)c2sc(Nc3ccccc3)nc2N)cc1	25	-11	x	0	-1	x
C[C@@H]1CN([C@H](C)CO)C(=O)Cc2cc(NC(=O)CCC(F)(F)F)ccc2O[C@@H]1CN(C)S(=O)(=O)c1ccc(F)cc1	2	6	x	0	x	-8[16.7 µM]
O=C1CSC(c2cccnc2)N1Cc1ccc(Cl)cc1 (centres undefined)	0	-11	10	3	35*	-1
O=S(=O)(N[C@@H]1CC[C@H](CCn2cc(C3CC3)nn2)O[C@H]1CO)c1ccc(F)cc1	4	-1	x	1	x	5[16.7 µM]
COc1ccccc1-c1c(C(F)(F)F)oc2cc(OC(=O)c3ccc([N+](=O)[O-])cc3)ccc2c1=O	67*	1	-4	-1	1	x
CN(C)c1ccc2c(c1)[C@@H]1C[C@@H](CC(=O)NCc3ccncc3)O[C@H](CO)[C@@H]1O2	0	x	x	-1	x	0[16.7 µM]
CCC1(c2ccc(F)cc2)NC(=O)N(CC(=O)NC2CC2)C1=O (centres undefined)	x	-8	0	4	31*	-7
CCC1(c2ccc(Cl)cc2)NC(=O)N(CC(=O)NC2CCCCCC2)C1=O (centres undefined)	-2	9	8	-3	3	x
C[C@@H]1CN([C@H](C)CO)C(=O)Cc2cc(NC(=O)Cn3cnnn3)ccc2O[C@@H]1CN(C)C	1	2	x	-3	x	0[16.7 µM]
CN1C(=O)c2cc(NC(=O)c3cscn3)ccc2OC[C@H]2O[C@H](CC(=O)NCC3CC3)CC[C@@H]21	-4	8	x	3	x	-8[16.7 µM]
CC(C)(O)C#Cc1ccc(C(=O)Nc2ccc3c(c2)OCO3)s1	63*	-21	47	2	31*	1
CCc1sc(C(=O)Nc2ccc(N3CCOCC3)cc2)cc1C	x	-3	53	-2	-2	6
CCc1sc(C(=O)Nc2ccc3c(c2)OCO3)cc1C	51*	-20	124*	4	43*	5
CCc1sc(C(=O)Nc2ccc3c(c2)OCCO3)cc1Br	51*	-19	104*	-1	43*	-3
CCOC(=O)/C(=N/Nc1ccc(C)cc1)S(=O)(=O)c1ccc(Cl)cc1	54*	-2	40	3	x	32
Nc1cc(Cl)ccc1C(=O)OCC(=O)N1CCCCCC1	53*	-4	73	-4	9	-9
Cc1ccc(C(=O)c2ccccc2C(=O)OCC(=O)N2CCCC2)cc1	43*	-17	7	3	6	3
O=C(OCC(=O)N1CCN(Cc2ccccc2)CC1)c1cc(Cl)ccc1[N+](=O)[O-]	-1	-14	-1	1	37*	-5
Cc1cccc(C(=O)OCC(=O)N2CCCCCC2)c1C	64*	45	79	8	34*	x
Cc1ccc(S(=O)(=O)N2CCN(C(=O)CCCOc3ccc(Cl)cc3C)CC2)cc1	0	x	6	x	-5	x
Cc1cc(Cl)ccc1OCCCC(=O)N1CCCCC1	60*	-7	100*	-1	x	-8
Cc1ccc(OCCCC(=O)N2CCOCC2)cc1	19	-23	16	1	x	-6
Cc1cc(Cl)ccc1OCCCC(=O)N1CCOCC1	59*	8	x	0	u	-6
CCN1CCc2nc(NC(=O)c3ccccc3)sc2C1	-51	-55	1	-4	x	10
O=C(Nc1nc2c(s1)CN(Cc1ccccc1)CC2)C1CCC1	20	-17	100*	x	7	-3
CCN(CC(=O)Nc1ccc2c(c1)OCCO2)C(=O)/C=C/c1cccc(Br)c1	63*	-18	53	0	17	-4
C[C@H](CO)N1C[C@H](C)[C@H](CN(C)C(=O)Nc2ccc(F)cc2)Oc2ccc(NC(=O)Nc3ccc4c(c3)OCO4)cc2C1=O	0	-3	x	-2	x	-4[16.7 µM]
CC1CCC2(CC1)NC(=O)N(Cc1cccc(C(F)(F)F)c1)C2=O (centres undefined)	x	x	-6	x	92*	x
CCNC(=O)C[C@@H]1CC[C@H]2[C@@H](COC[C@@H](O)CN2C(=O)Nc2c(C)noc2C)O1	2	-17	x	4	x	-2[16.7 µM]
COc1ccc2c(c1)O/C(=C\c1ccco1)C2=O	30	-13	72	-9	11	-4
CC(=O)COc1ccc2c(c1C)O/C(=C\c1ccco1)C2=O	61*	-7	64	-4	6	-5
CCCNC(=O)[C@@H]1[C@@H](CO)[C@@H]2Cn3c(ccc(-c4cccc(OC)c4)c3=O)[C@H]1N2CCC	-2	12	x	-1	x	8[16.7 µM]
CO[C@@H]1CN(C)C(=O)c2ccc(NC(=O)c3ccc(F)cc3)cc2OC[C@H](C)N(C(=O)CC2CC2)C[C@H]1C	16	x	x	0	x	x
O=C(C[C@H]1CC[C@H]2NC[C@H](O)COC[C@@H]2O1)Nc1ccccc1	-6	0	x	3	x	3[16.7 µM]
C[C@@H]1CN([C@@H](C)CO)C(=O)c2cc(NC(=O)C3CC3)ccc2O[C@H]1CN(C)Cc1ccncc1	-2	-13	x	-3	x	-4[16.7 µM]

Sorted by length of the SMILES (ascending): three of the compounds above
SMILES	esBAF inh	UUG fidelity	MITF TRPM1 HTS	PglD inh	Wnt act	miR122 inh
O=C(Nc1nc2c(s1)CN(Cc1ccccc1)CC2)C1CCC1	20	-17	100*	x	7	-3
Cc1ccc(C(=O)c2ccccc2C(=O)OCC(=O)N2CCCC2)cc1	43*	-17	7	3	6	3
O=C(C[C@H]1CC[C@H]2NC[C@H](O)COC[C@@H]2O1)Nc1ccccc1	-6	0	x	3	x	3[16.7 µM]

An excerpt from above, reduced to PglD inh and UUG fidelity:
Molecule,PglD inh,UUG fidelity
Cc1cc(Cl)ccc1OCCCC(=O)N1CCCCC1,-1,-7
Cc1ccc(OCCCC(=O)N2CCOCC2)cc1,1,-23
Cc1cc(Cl)ccc1OCCCC(=O)N1CCOCC1,0,8

Remaining list, next part
SMILES	esBAF inh	UUG fidelity	MITF TRPM1 HTS	PglD inh	Wnt act	miR122 inh
Cc1cccc(-n2cnc(C(=O)NC3CCCCCC3)c2)n1	68*	-18	u	3	x	-5
Cc1cccc(-n2cnc(C(=O)O)c2)n1	1	6	11	-2	-10	-3
CCCCC(=O)NC(=S)Nc1cccc(NC(=O)CC)c1	17	-21	-12	5	1	18
CCCCC(=O)NC(=S)Nc1cccc(C(=O)O)c1	44*	1	-1	1	0	4
CC(=O)c1cccc(NC(=S)NC(=O)C(C)C)c1	3	-23	2	-8	36*	2
COc1ccc(S(=O)(=O)NNC(=O)c2cccs2)cc1	1	-24	-8	-2	-1	x
O=C(Nc1ccc(NC(=O)c2ccccc2F)cc1)c1cccs1	74*	-3	137*	0	37*	4
O=C(Nc1ccc(Cl)cc1)c1cccs1	52*	-10	58	4	26	36
O=C(NNS(=O)(=O)c1ccc(Cl)cc1)c1cccs1	x	x	-3	x	1	116*
CC(Cc1cccs1)NC(=O)Nc1ccc(Cl)cc1 (centres undefined)	x	-7	51	-6	58*	18

Source: PubChem BioAssay
